The source of these data is PubChem BioAssay AID849 (SRMLSC, 2007).

Structures are written as SMILES. Active and inactive are the calls of the source. The rule behind the calls is not given here. A value given as a limit tells only on which side of the number the result lay.

The assay relates to Saccharomyces cerevisiae lifespan shortening, growth inhibition. The assay can be described thus: yeast lifespan shortening compounds, dose response (AID 849).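 Note: yeast growth read as optical density after two days at 30 degrees C.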

Turning to `O=[N+]([O-])c1cc([N+](=O)[O-])c(-c2ccn[nH]2)s1`, the IC50 (commonly the midpoint of a concentration-inhibition curve) was inactive: > 100 µM.
